# Data: patent US20130183237A1 (priority 2007, published 2013)
# What was measured:
# [1] = rat; cited from earlier work
# recombinant α-thrombin = recombinant α-thrombin (Homo sapiens, UniProt P00734); settings: S2238 100 μM
# [2] = mean, total radioactivity, male rats, single i.v. 0.4 mg/kg
# [3] = biological target: human plasma derived thrombin ([…], Japan) (human), P00734
# [4] = biological target: human plasma derived thrombin ([…], Japan) (human), P00734; experiment: cell-based or functional assay
Molecule,Ki [3],"IC50 of inhibition of thrombin amidolytic activity (S2238), pre-incubation 0 min [4]",further results
hirudin,,,radioactivity recovered in the kidney [1]: 80%
SDQGDVAEPKMHKT(hex)APPFDFEAIPEEYLDDES [variegin],,,"inhibition at equimolar concentrations of thrombin and inhibitor (recombinant α-thrombin; 3.33 nM thrombin and 3.33 nM inhibitor): ~80%; IC50 (recombinant α-thrombin; read-out: IC50 of inhibition of thrombin amidolytic activity, thrombin 3.33 nM, incubation time not stated or independent of it): ~0.99 nM; t½^a, apparent terminal elimination half life [2]: 117.2 h; t½^b, apparent distribution half life (plasma half-life) [2]: 0.86 h"
MHKTAPPFDFEEIPEEYLDDES (modifications not checked) [MH22A22E],15.1 nM,,
EPKMHKTAPPFDFEEIPEEYLDDES (modifications not checked) [EP25A22E],0.311 nM,124 nM,
MHKTAPPFDFEAIPEEYL (modifications not checked) [MH18],,10.9 nM,
DVAEPKMHKTAPPFDFEAIPEEYL (modifications not checked) [DV24],0.306 nM,7.49 nM,
